Results from patent publication US20200121645A1, “COMPOSITION FOR PREVENTING OR TREATING EGFR-MUTANT NON-SMALL CELL LUNG CANCER” (THE ASAN FOUNDATION, priority 2018, published 2020).

Tested on: EGFR-mutant NSCLCs (PC9 and H1975)
Test: Apoptotic cell death by Annexin V/PI staining and flow cytometry
Type: cell-based
Conditions: 2DG 10 mM; MPYR or AKG 7 mM, NAC 4 mM
Experimental: Apoptotic cell death was detected using an Annexin-V/FITC assay. Cells were harvested by trypsinization, washed with PBS, and resuspended in Annexin-V binding buffer (10 mM HEPES, pH 7.4, 140 mM NaCl, 2.5 mM CaCl2) containing Annexin-V FITC and propidium iodide. Stained cells were quantified and analyzed on a flow cytometer (BeckmanCoulter, Brea, Calif., USA).

For `O=C(O)CCC(=O)C(=O)O` [α-ketoglutarate], the “rescue from 2DG treatment-induced apoptotic cell death” value was “reversed significantly”.
